Source: PubChem BioAssay AID1863 (Southern Research Specialized Biocontainment Screening …, 2009)
Values joined by “and” are separate entries in the source; they are usually repeats but may differ in a detail not shown here. Equal values may be shown once. The entries are a selection whose mix differs from that of the whole data set. Results with a measured potency or affinity are listed apart. Active and inactive are the calls of the source.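 The calls were made as follows: active = inhibition over 29.93%, a cutoff 3 SD above the screen mean, later confirmed by dose response; inconclusive = inhibition over 29.93% but no dose response follow-up; inactive = inhibition at most 29.93% or unconfirmed.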

Assay: PhoP-dependent GFP reporter repression – Salmonella Typhimurium, primary screen (AID 1863);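 also: 0% = low Mg2+ inducing control and 100% = high Mg2+ repressing control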
Settings: S. Typhimurium PhoP-regulated promoter GFP reporter, 4 h; at 50 µM; active compounds read high

Compound | inhibition
COc1ccc(C2=NCC(CBr)S2)cc1 (stereo not given) | inactive: -6.82%
CC(=O)N1C2C3N(C(C)=O)C1C1N(C(C)=O)C(C(N1C(C)=O)N3C(C)=O)N2C(C)=O | inactive: 27.4%
O=[N+]([O-])c1cccc2n[nH]nc12 | inactive: -2.23%
Cc1ccc(NP(=O)(Oc2ccccc2)Oc2ccccc2)nc1 | inactive: -8.3%
O=[N+]([O-])c1cc([N+](=O)[O-])c(CCNc2ccccc2)c([N+](=O)[O-])c1 | inactive: 6.47%
CCc1nc2c(n1)c1c(non1O)c1c2no[n+]1[O-] | inactive: 1.11%
Nc1ccc([As](=O)(O)c2ccc(N)cc2)cc1 | inactive: 4.15%
C[N+]1=C2C=CC=CC=C2SC12C([N+](=O)[O-])=CC([N+](=O)[O-])=C[C-]2[N+](=O)[O-] (stereo not given) | inactive: 21.4%
CCN(/C(=N/P(=O)(N1CCOCC1)N1CCOCC1)N1CCOCC1)c1ccc(OC)cc1 | inactive: 4.03%
CC(C)=N/N=C(\N)N[N+](=O)[O-] | inactive: 2.14%
CN(C)C(=O)OCCc1n(C)cc[n+]1C | inactive: -22.3%
CC1CCN(C(=O)Oc2c(Cl)cc(Cl)c3cccnc23)CC1 | inactive: -1.76%
O=C(Nc1cc([As](=O)(O)O)ccc1O)c1ccccc1 | inactive: -3.64%
CC(C)(C)C(=O)NC(Sc1ccncn1)C(Cl)(Cl)Cl (stereo not given) | inactive: -5.35%
O=[N+]([O-])c1ncn(CCn2ncnc2[N+](=O)[O-])n1 | inactive: 3.28%
O=[N+]([O-])c1cccc(NC2=NCC(CBr)S2)c1 (stereo not given) | inactive: -8.77%
O=C(O)CNc1ccc([As](=O)(O)O)cc1 | inactive: -5.41%
CC(=O)Nc1ccc([As](=O)(O)O)cc1 | inactive: -3.23%
O=P(Nc1nc2ccc(Cl)cc2s1)(c1ccccc1)c1ccccc1 | inactive: -11%
Cc1cc(SC(NC(=O)c2ccc(F)cc2)C(Cl)(Cl)Cl)ncn1 (stereo not given) | inactive: 14.9%
CCOP(=O)(Nc1ccccc1)OCC | inactive: -9.51% and inactive: -3.2%
CN(C(=O)Cc1ccc(Cl)c(Cl)c1)[C@H]1CCCC[C@@H]1N1CCCC1 | inactive: -6.85%
Cc1ccc(NP(=O)(Oc2ccccc2F)Oc2ccccc2F)nc1 | inactive: -8.93%
O=[N+]([O-])c1cc([N+](=O)[O-])c(CCN2CCOCC2)c([N+](=O)[O-])c1 | inactive: 4.49%
CCN(N=Nc1nonc1N)c1nonc1N | inactive: 6.31%

Compound | inhibition
Nc1cccc2ccc([As](=O)(O)O)cc12 | inactive: -8.41%
NC(=O)c1cc([N+](=O)[O-])cc([N+](=O)[O-])c1N | inactive: 3.45%
CN(C(=O)Cc1ccc(Cl)c(Cl)c1)[C@H]1CCCC[C@H]1N1CCCC1 | inactive: -3.62%
Cc1ccc(N/C(=N/P(=O)(N2CCOCC2)N2CCOCC2)N2CCOCC2)cc1 | inactive: -0.36%
Cc1ccc(OP(=O)(Nc2nccs2)Oc2ccc(C)cc2)cc1 | inactive: -14.5%
CN1CCCC(OC(=O)C(c2ccccc2)c2ccccc2)C1 (stereo not given) | inactive: -3.66%
Clc1ccc(Cl)c(NC2=NCC(CBr)S2)c1 (stereo not given) | inactive: -8.5%
CC(C)CC(=O)NC(Sc1ccc(Cl)cc1)C(Cl)(Cl)Cl (stereo not given) | inactive: 1.64%
Oc1ccccc1CNc1ccccn1 | inactive: -2.17%
O=C(NC(Sc1ccncn1)C(Cl)(Cl)Cl)c1ccccc1 (stereo not given) | inactive: 17%
Cc1c2non([O-])c-2c(C)[n+](=O)[n+]1[O-] | inactive: -31.9%
O=P1(Nc2nc3ccc(Cl)cc3s2)COc2ccccc2O1 (stereo not given) | inactive: 26.5%
CCOc1ccc(C2=NCC(CBr)S2)cc1 (stereo not given) | inactive: 2.31%
CC(C)(C)C(=O)NC(Sc1ccccc1)C(Cl)(Cl)Cl (stereo not given) | inactive: -7.55%
C[C@H]1OP(=O)(Oc2ccccc2)C[C@@H]2O[C@@H]21 (stereo not given in full) | inactive: -4.41%
C[C@@H]1C=CCP(=O)(Oc2ccccc2)O1 (stereo not given in full) | inactive: -0.625%
CC(=O)Nc1ccc([As](=O)(O)O)c(O)c1 | inactive: -10.3%
CC(=O)Nc1ccc(Oc2c([N+](=O)[O-])cc([N+](=O)[O-])cc2[N+](=O)[O-])cc1 | inactive: 6.93%
O=C(NC1CCS(=O)(=O)C1)NP(=S)(Oc1ccccc1)Oc1ccccc1 (stereo not given) | inactive: 5.46%
CCNC(=S)/N=C(\N)N[N+](=O)[O-] | inactive: -9.44%
c1ccc(-c2nn[nH]n2)c(-c2nn[nH]n2)c1 | inactive: -4.37%
CCOC(=O)NC(Sc1ccccc1)C(Cl)(Cl)Cl (stereo not given) | inactive: 1.09%
Cc1ccc(NP(=O)(Oc2cccc(C)c2)Oc2cccc(C)c2)nc1 | inactive: -5.01%
COC(=O)c1cc2c(s1)N=C(c1ccccc1)N(C)P2(=O)N1CCOCC1 (stereo not given) | inactive: -10.2%
Cc1ccc(OP(=O)(Nc2ccccn2)Oc2ccc(C)cc2)cc1 | inactive: -5.27%

Compound | inhibition
CC(=O)NC(SC(=S)N(CC(C)C)CC(C)C)C(Cl)(Cl)Cl (stereo not given) | inactive: 10.7%
O=C(OC1CN2CCC1CC2)c1ccccc1 (stereo not given) | inactive: 0.43%
CCC(=O)N1C2C3N(C(=O)CC)C1C1N(C(=O)CC)C(C(N1C(=O)CC)N3C(=O)CC)N2C(=O)CC | inactive: 2.92%
Cc1ccccc1OP(=O)(Nc1ccccn1)Oc1ccccc1C | inactive: -13.1%
O=c1c2cc([N+](=O)[O-])ccc2[nH]c2c([N+](=O)[O-])cc([N+](=O)[O-])cc12 | inactive: -5.83%
CN(C)C(=O)Oc1noc2ccccc12 | inactive: -0.24%
CN(C)C1(CNC(=O)c2ccc(Cl)c(S(N)(=O)=O)c2)CCCCC1 | inactive: -5.61%
O=P(Nc1ccccn1)(c1ccc(Br)cc1)c1ccc(Br)cc1 | inactive: 1.43%
O=P(Nc1nc2ccccc2s1)(c1ccccc1)c1ccccc1 | inactive: -5.31%
C[C@H]1OP(=O)(Oc2ccccc2)[C@H](O)[C@H](O)[C@H]1N=[N+]=[N-] (stereo not given in full) | inactive: -1.71%
O=[N+]([O-])c1ncn(CCn2cnc([N+](=O)[O-])n2)n1 | inactive: -16.7%
CC(=O)NC(SC(=S)N(C)C)C(Cl)(Cl)Cl (stereo not given) | inactive: -8.05%
O=[N+]([O-])c1ccc(O)c(/C=N/Nc2ccc([N+](=O)[O-])cc2[N+](=O)[O-])c1 | inactive: -0.4%
O=[As](O)(c1ccccc1)c1ccc(O)cc1 | inactive: -3.62%
C(Cc1nn[nH]n1)Cc1nn[nH]n1 | inactive: -18.2%
Nc1ccc([As](=O)(O)c2ccc([N+](=O)[O-])cc2)cc1 | inactive: -4.68%
O=C(OC1CN2CCC1CC2)c1cccc(Cl)c1 (stereo not given) | inactive: 4.22%
O=P(Nc1nccs1)(c1ccccc1)c1ccccc1 | inactive: 1.16%
CC(C)C(=O)NC(Sc1ccccc1)C(Cl)(Cl)Cl (stereo not given) | inactive: -2.33%
c1nnnn1CCn1cnnn1 | inactive: 3.38%
CCOP(=O)(Nc1ccc(C)cn1)OCC | inactive: -4.07%
CN(CCCl)Cc1cc(Cl)c(NC2=NCCN2)c(Cl)c1 | inactive: -2.63%
O=P1(Nc2ccccn2)COc2ccccc2OC1 | inactive: 7.15%
CCOP(=O)(NC(=NC(C)c1ccccc1)NC(C)c1ccccc1)OCC (stereo not given) | inactive: 6.54%
Clc1n[nH]nc1-c1nn[nH][15n]1 | inactive: -6.28%

Compound | inhibition
CC(C)(C)C(=O)NC(Sc1ncccn1)C(Cl)(Cl)Cl (stereo not given) | inactive: 4.83%
COc1ccccc1CNC(=O)COC(=O)C(O)(c1ccccc1)c1ccccc1 | inactive: -6.29%
O=[As](O)(c1ccccc1Br)c1ccccc1Br | inactive: -8.25%
CN(C(=O)Cc1ccc(Cl)c(Cl)c1)[C@@H]1CCCC[C@H]1N1CCCC1 | inactive: -5.86% and inactive: -5.24%
CC(C)/C=N\N=C(\N)N[N+](=O)[O-] | inactive: -3.56%
Cc1nn(-c2ccccc2)c2c1P(=O)(N1CCOCC1)N(C)C(c1ccccc1)=N2 (stereo not given) | inactive: 1.52%
CC1CCC(C(C)C)C(OP(=O)(Nc2ccccn2)c2ccccc2)C1 (stereo not given) | inactive: 1.22%
O=C(/C=C/c1ccccc1)OC1CN2CCC1CC2 (stereo not given) | inactive: 8.97%
CN(C)C1(CNC(=O)c2ccc(S(C)(=O)=O)cc2)CCCCC1 | inactive: -0.69%
O=P1(Nc2ncccn2)COc2ccccc2OC1 | inactive: 1.1%
O=[As](O)(c1cccs1)c1cccs1 | inactive: -2.96%
Cc1ccc(OCC(=O)OC2CN3CCC2CC3)cc1 (stereo not given) | inactive: -7.78%
O=P1(Nc2ccc(Br)cn2)COc2ccccc2OC1 | inactive: -9.83%
Nc1cccc([As](=O)(O)c2ccccc2)c1 | inactive: -0.26%
CS(=O)(=O)c1cc([N+](=O)[O-])c2no[n+]([O-])c2c1 | inactive: -23%
CCOP1(=S)c2c(C)nn(CCC#N)c2N=C(c2ccccc2F)N1C (stereo not given) | inactive: 8.68%
O=P(Nc1nccs1)(Oc1ccccc1)Oc1ccccc1 | inactive: -4.92%
O=P(Nc1nccs1)(c1ccccc1)c1nc2ccccc2s1 (stereo not given) | inactive: 4.12%
O=C(O)COc1ccc([As](=O)(O)O)cc1[N+](=O)[O-] | inactive: 5.21%
Nc1ccccc1[As](=O)(O)c1ccccc1 | inactive: -0.18%
NC(=O)Nc1ccc([As](=O)(O)O)cc1 | inactive: -3.92%
O=[N+]([O-])c1ccc2c(c1)nnn2O | inactive: 7.49%
CN(C(=O)Cc1ccc(Cl)c(Cl)c1)[C@H]1CC[C@@]2(CCCO2)C[C@@H]1N1CCCC1 | inactive: -7.95%
N#CCCN(C(=O)COC(=O)C(O)(c1ccccc1)c1ccccc1)c1ccc(F)cc1 | inactive: -1.21%
CCOP1(=S)c2c(C)nn(CCC#N)c2N=C(c2ccc(F)cc2)N1C (stereo not given) | inactive: 10%
